Measured water solubility values of organic chemicals

Source: data files of OPERA 2.9 (Mansouri et al.), github.com/kmansouri/OPERA.

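The numbers are reported measurements, compiled and curated for the OPERA QSAR suite. The files give a single number for a compound and property, which may rest on several reports. Conditions of the individual experiments are not part of the data. The measured form (salt, isomer or mixture) is not always the one drawn. Some upstream entries may be estimates or bounds without being marked so.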

Solubility in water is on a log10 molar scale (set defined at 25 °C). Cells with "n/a" have no entry in this list.

structure (SMILES),name,water solubility (log10 mol/L)
CCCCCCCCN(CCO)CCO,"N,N-Bis(2-hydroxyethyl)octylamine",-2.191
OCc1cccc(Oc2ccccc2)c1,3-Phenoxybenzenemethanol,-2.742
CC(=O)C(=NNc1ccc(-c2ccc(NN=C(C(C)=O)C(=O)Nc3ccc(C)cc3C)c(Cl)c2)cc1Cl)C(=O)Nc1ccc(C)cc1C,C.I. Pigment Yellow 13,-7.535
COc1cccc(OC)c1C(=O)N[C@@H]1C(=O)N2[C@@H]1SC(C)(C)[C@@H]2C(=O)O,Methicillin,-3.089
C=C(CC(=O)O)C(=O)OCC,3-(Ethoxycarbonyl)but-3-enoic acid,-0.918
C#CC(C)(O)CCCC(C)CCCC(C)C (stereo unspecified),"3,7,11-Trimethyldodec-1-yn-3-ol",-5.112
CC(C)c1ccc(C(O)C(=O)O)cc1 (stereo unspecified),Hydroxy(4-isopropylphenyl)acetic acid,-2.012
CC(O)C(C)Cc1ccccc1 (stereo unspecified),3-Methyl-4-phenyl-2-butanol,-1.697
CN1CCCCC1,"Piperidine, 1-methyl-",0.23
C=C(C)C(=O)OCCOC(=O)c1c(CC(O)CCl)cccc1C(=O)O (stereo unspecified),n/a,-2.806
[N-]=[N+]=C1C=Cc2c(cccc2S(=O)(=O)Oc2ccc(C(=O)c3ccccc3)c(OS(=O)(=O)c3cccc4c3C=CC(=[N+]=[N-])C4=O)c2OS(=O)(=O)c2cccc3c2C=CC(=[N+]=[N-])C3=O)C1=O,n/a,-6.821
C=C(C)[C@@H]1CC[C@@H](C)C[C@H]1O,(-)-Isopulegol,-1.711
CCCCOc1cc(C(=O)OCCN(CC)CC)ccc1N,Benoxinate,-2.754
COc1ccc(C(c2ccc(OC)cc2)C(C)[N+](=O)[O-])cc1 (stereo unspecified),"1,1-BIS(P-MEO-PH)-2-NITROPROPANE",-4.541
Cc1ccsc1C(=CCCN1CCC[C@@H](C(=O)O)C1)c1sccc1C,Tiagabine,-4.25
CC(=O)OCCC(C)OC(C)=O (stereo unspecified),"1,3-Butanediol diacetate",-0.542
O=C(O)[C@@H]1C2CCC(CC2)[C@H]1Nc1nc(Cl)ncc1F,n/a,-3.572
CC(C)(C)Cl,t-Butylchloride,-1.507
O=C1OC(=O)c2cc(Oc3ccc4c(c3)C(=O)OC4=O)ccc21,"5,5'-Oxybis(2-benzofuran-1,3-dione)",-1.912
CSc1cnc2cncnc2n1,n/a,-1.55
CC1(CO)CC1CC1CC2CC2(C)C1(C)C (stereo unspecified),n/a,-4.767
CCCOC(=O)CCC(=O)N(CC)CC,"Butanoic acid, 4-(diethylamino)-4-oxo-, propyl ester (9CI)",-0.617
COc1cccc(O)c1,3-Methoxyphenol,-2.39
N[C@@H]1CCc2c(c3ccccc3n2CCC(=O)O)C1,n/a,-2.488
CCCCCCCC/C=C\CCCCCCCC(=O)O.CCCCCCCC/C=C\CCCCCCCCN,n/a,-5.962
CCCCOc1ccc(B(O)O)c(F)c1F,"(4-Butoxy-2,3-difluorophenyl)boronic acid",-3.714
O=C(O)c1ccc2c(c1)C(=O)OC2=O,Trimellitic anhydride,-2.275
O=[N+]([O-])c1ccc(Br)cc1,"Benzene, 1-bromo-4-nitro-",-3.25
CCN(CCO)S(=O)(=O)C(F)(F)C(F)(F)C(F)(F)C(F)(F)C(F)(F)C(F)(F)C(F)(F)C(F)(F)F,N-Ethyl-N-(2-hydroxyethyl)perfluorooctanesulfonamide,-6.578
Clc1ccc(C(Cn2ccnc2)OCc2ccsc2Cl)c(Cl)c1 (stereo unspecified),Tioconazole,-4.371
CC(C)c1ccc(Br)c(=O)c(O)c1Br,n/a,-4.47
C=C(C)C(=O)OCCNC(=O)n1nc(C)cc1C,n/a,-2.443
O=C(CCS)OCC(COC(=O)CCS)(COC(=O)CCS)COC(=O)CCS,n/a,-5.123
Cc1cccnc1C,"2,3-Dimethylpyridine",0.38
CC(C)c1ccc(Cl)cc1CNC1CC1,n/a,-3.403
CCCCCCCCCCCCCCCCCCNC(=O)Nc1ccc(Cc2ccc(NC(=O)NCCCCCCCCCCCCCCCCCC)cc2)cc1,n/a,-5.943
CCOc1ccc(Nc2ccc(S(=O)(=O)N(C)C)cc2[N+](=O)[O-])cc1,n/a,-4.262
CCCC(=O)Nc1ccccc1,"Butanamide, N-phenyl-",-2.14
C=C(C)C(=O)OCCN(C)S(=O)(=O)C(F)(F)C(F)(F)C(F)(F)C(F)(F)F,2-(N-Methylperfluorobutanesulfonamido)ethyl methacrylate,-6.343
CCCCc1ccc(Nc2ccc(Nc3ccc(CCCC)cc3)c3c2C(=O)c2c(Nc4ccc(CCCC)cc4)ccc(Nc4ccc(CCCC)cc4)c2C3=O)cc1,n/a,-8.153
Cc1cc(N)nc(C)n1,Kyanmethin,-1.28
C=CC(=O)NCCC[Si](O[Si](C)(C)C)(O[Si](C)(C)C)O[Si](C)(C)C,N-[3-[Tris(trimethylsiloxy)silyl]propyl]acrylamide,-7.148
CC/C=C\CCOC(=O)C1CC1,(3Z)-Hex-3-en-1-yl cyclopropanecarboxylate,-2.925
CCCCC(CC)CN(CCO)CC(CC)CCCC (stereo unspecified),2-[Bis(2-ethylhexyl)amino]ethan-1-ol,-4.942
Clc1ccc(Oc2c(Cl)c(Cl)cc(Cl)c2Cl)cc1,"2,3,4',5,6-Pentachlorodiphenylether",-7.76
CCCCCCOC(=O)/C=C/C(=O)OCCCCCC,Dihexyl (2E)-2-butenedioate,-6.278
CCC(C)C(=O)OC(C)C (stereo unspecified),Isopropyl 2-methylbutyrate,-2.32
CCn1c(O)c(N=Nc2ccc(Cl)cc2[N+](=O)[O-])c(C)c(C#N)c1=O,n/a,-6.69
C=CC(F)(F)C(F)(F)C(F)(F)C(F)(F)C(F)(F)C(F)(F)F,(Perfluorohexyl)ethylene,-5.456
O=C(O)CCCCCCC(C(=O)O)(c1ccccc1)c1ccccc1,"2,2-Diphenylnonanedioic acid",-3.92
C=CC(C)(O)CC/C=C(\C)CC (stereo partly drawn),Ethyl linalool,-2.409
CCOC(=O)[C@H](CCc1ccccc1)N[C@@H](C)C(=O)N1CCC[C@H]1C(=O)O.O=C(O)/C=C\C(=O)O,Enalapril maleate,-4.29
CCCCCC(C)CO (stereo unspecified),2-Methylheptan-1-ol,-2.528

The 8 lowest values of water solubility among the entries above:

| structure (SMILES) | name | water solubility (log10 mol/L) |
|---|---|---|
| CCCCc1ccc(Nc2ccc(Nc3ccc(CCCC)cc3)c3c2C(=O)c2c(Nc4ccc(CCCC)cc4)ccc(Nc4ccc(CCCC)cc4)c2C3=O)cc1 | n/a | -8.153 |
| Clc1ccc(Oc2c(Cl)c(Cl)cc(Cl)c2Cl)cc1 | 2,3,4',5,6-Pentachlorodiphenylether | -7.76 |
| CC(=O)C(=NNc1ccc(-c2ccc(NN=C(C(C)=O)C(=O)Nc3ccc(C)cc3C)c(Cl)c2)cc1Cl)C(=O)Nc1ccc(C)cc1C | C.I. Pigment Yellow 13 | -7.535 |
| C=CC(=O)NCCC[Si](O[Si](C)(C)C)(O[Si](C)(C)C)O[Si](C)(C)C | N-[3-[Tris(trimethylsiloxy)silyl]propyl]acrylamide | -7.148 |
| [N-]=[N+]=C1C=Cc2c(cccc2S(=O)(=O)Oc2ccc(C(=O)c3ccccc3)c(OS(=O)(=O)c3cccc4c3C=CC(=[N+]=[N-])C4=O)c2OS(=O)(=O)c2cccc3c2C=CC(=[N+]=[N-])C3=O)C1=O | n/a | -6.821 |
| CCn1c(O)c(N=Nc2ccc(Cl)cc2[N+](=O)[O-])c(C)c(C#N)c1=O | n/a | -6.69 |
| CCN(CCO)S(=O)(=O)C(F)(F)C(F)(F)C(F)(F)C(F)(F)C(F)(F)C(F)(F)C(F)(F)C(F)(F)F | N-Ethyl-N-(2-hydroxyethyl)perfluorooctanesulfonamide | -6.578 |
| C=C(C)C(=O)OCCN(C)S(=O)(=O)C(F)(F)C(F)(F)C(F)(F)C(F)(F)F | 2-(N-Methylperfluorobutanesulfonamido)ethyl methacrylate | -6.343 |